In test [1] the test system is human colon cancer LoVo cell. In words: MTT proliferation assay, LoVo. Type of test: cell-based. The note with it: 96 h, read-out: IC50 (nM), proliferation of LoVo cell. The protocol:
(§1) The cells were seeded into 96-well cell culture plate with a density of 2000/4000 cells per well and incubated overnight in a 5% CO2 incubator at 37° C. […] 5 μL diluent of each concentration was added to 120 μL of medium (25 times diluted) and mixed by shaking. The overnight cell plates were taken and the culture medium was removed, 195 μL of fresh medium was added to each well, and 5 μL of diluted medium containing the corresponding concentration of the test compound was added respectively (the final concentration of DMSO is 1%), and the culture plate was then placed in a 5% CO2 incubator at 37° C. for 4 days. After removing the original solution, 100 SEL of fresh serum-free DMEM medium containing MTT (0.5 mg/mL) was added to each well, the culture was continued. […] Cell viability (%)=(ODcompound−ODbackground)/ODDMSO−ODbackground)×100. GraphPad Prism 6.0 was used to analyze the data. The inhibitory activity of compounds on cell proliferation was plotted based on cell viability and the logarithm of compound concentration. The IC5.0 value was fitted by a sigmoidal dose response curve equation Y=100/(1+10^(LogC-LogIC50)), wherein C was the concentration of compound.
For orientation: Formazan colour is commonly taken as a measure of viable cells.

Test [2] deals with human lung cancer NCI-H460 cell. In words: MTT proliferation assay, NCI-H460. Type of test: cell-based. Particulars: NCI-H460, 96 h, read-out: IC50 (nM), proliferation of NCI-H460 cell. As for the experimental part:
The cells were digested by trypsinase and centrifuged at 800 rpm for 5 minutes, the supernatant was discarded, and the residual was resuspended with fresh medium […]) and counted.
as §1, with “μL” for “SEL”, “(%)=(ODcompound−ODbackground)/(ODDMSO−ODbackground)×100.” for “(%)=(ODcompound−ODbackground)/ODDMSO−ODbackground)×100.”, “IC50” for “IC5.0”, “[…],” for “Y=100/(1+10^(LogC-LogIC50)),”

On to `C[C@@H]1COCCN1c1cc(-c2ccnn2C)c2ccnc(-c3ccn[nH]3)c2n1` [BAY-1895344, reference compound], for which the IC50 is 27.1 nM in test [1] and 22 nM in test [2].

The values are drawn from patent US20240059695A1, “SUBSTITUTED IMIDAZO[1,5-b]PYRIDAZINE COMPOUNDS AS KINASE INHIBITORS AND USE THEREOF” (IMPACT THERAPEUTICS (SHANGHAI), INC, priority 2020, published 2024).
